Assays:
Experiment in all cases: apparent dissociation constant pKd app (kinobead competition) (-log10(M)); higher = stronger binding
PRKCB = PRKCB (UniProt P05771)
MAP2K5 = target: T1, MAP2K5 (UniProt Q13163)
T1 sequence (whole entry): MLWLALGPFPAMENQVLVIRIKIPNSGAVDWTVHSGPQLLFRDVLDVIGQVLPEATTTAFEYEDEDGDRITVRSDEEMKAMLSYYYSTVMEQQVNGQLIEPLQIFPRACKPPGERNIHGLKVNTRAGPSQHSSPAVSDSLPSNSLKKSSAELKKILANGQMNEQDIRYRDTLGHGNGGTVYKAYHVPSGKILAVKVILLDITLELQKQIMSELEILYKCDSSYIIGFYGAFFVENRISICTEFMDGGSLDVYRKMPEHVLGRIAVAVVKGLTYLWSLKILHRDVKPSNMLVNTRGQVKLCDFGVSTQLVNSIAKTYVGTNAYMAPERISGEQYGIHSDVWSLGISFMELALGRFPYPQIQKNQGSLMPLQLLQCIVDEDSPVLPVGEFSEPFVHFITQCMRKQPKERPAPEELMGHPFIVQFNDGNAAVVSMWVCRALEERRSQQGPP

By UniProt entry, the sequences of proteins in these tests, tags left out. Where a name states a change or a piece, a line headed by the entry shows the natural chain unless it says otherwise.
UniProt Q9P2K8: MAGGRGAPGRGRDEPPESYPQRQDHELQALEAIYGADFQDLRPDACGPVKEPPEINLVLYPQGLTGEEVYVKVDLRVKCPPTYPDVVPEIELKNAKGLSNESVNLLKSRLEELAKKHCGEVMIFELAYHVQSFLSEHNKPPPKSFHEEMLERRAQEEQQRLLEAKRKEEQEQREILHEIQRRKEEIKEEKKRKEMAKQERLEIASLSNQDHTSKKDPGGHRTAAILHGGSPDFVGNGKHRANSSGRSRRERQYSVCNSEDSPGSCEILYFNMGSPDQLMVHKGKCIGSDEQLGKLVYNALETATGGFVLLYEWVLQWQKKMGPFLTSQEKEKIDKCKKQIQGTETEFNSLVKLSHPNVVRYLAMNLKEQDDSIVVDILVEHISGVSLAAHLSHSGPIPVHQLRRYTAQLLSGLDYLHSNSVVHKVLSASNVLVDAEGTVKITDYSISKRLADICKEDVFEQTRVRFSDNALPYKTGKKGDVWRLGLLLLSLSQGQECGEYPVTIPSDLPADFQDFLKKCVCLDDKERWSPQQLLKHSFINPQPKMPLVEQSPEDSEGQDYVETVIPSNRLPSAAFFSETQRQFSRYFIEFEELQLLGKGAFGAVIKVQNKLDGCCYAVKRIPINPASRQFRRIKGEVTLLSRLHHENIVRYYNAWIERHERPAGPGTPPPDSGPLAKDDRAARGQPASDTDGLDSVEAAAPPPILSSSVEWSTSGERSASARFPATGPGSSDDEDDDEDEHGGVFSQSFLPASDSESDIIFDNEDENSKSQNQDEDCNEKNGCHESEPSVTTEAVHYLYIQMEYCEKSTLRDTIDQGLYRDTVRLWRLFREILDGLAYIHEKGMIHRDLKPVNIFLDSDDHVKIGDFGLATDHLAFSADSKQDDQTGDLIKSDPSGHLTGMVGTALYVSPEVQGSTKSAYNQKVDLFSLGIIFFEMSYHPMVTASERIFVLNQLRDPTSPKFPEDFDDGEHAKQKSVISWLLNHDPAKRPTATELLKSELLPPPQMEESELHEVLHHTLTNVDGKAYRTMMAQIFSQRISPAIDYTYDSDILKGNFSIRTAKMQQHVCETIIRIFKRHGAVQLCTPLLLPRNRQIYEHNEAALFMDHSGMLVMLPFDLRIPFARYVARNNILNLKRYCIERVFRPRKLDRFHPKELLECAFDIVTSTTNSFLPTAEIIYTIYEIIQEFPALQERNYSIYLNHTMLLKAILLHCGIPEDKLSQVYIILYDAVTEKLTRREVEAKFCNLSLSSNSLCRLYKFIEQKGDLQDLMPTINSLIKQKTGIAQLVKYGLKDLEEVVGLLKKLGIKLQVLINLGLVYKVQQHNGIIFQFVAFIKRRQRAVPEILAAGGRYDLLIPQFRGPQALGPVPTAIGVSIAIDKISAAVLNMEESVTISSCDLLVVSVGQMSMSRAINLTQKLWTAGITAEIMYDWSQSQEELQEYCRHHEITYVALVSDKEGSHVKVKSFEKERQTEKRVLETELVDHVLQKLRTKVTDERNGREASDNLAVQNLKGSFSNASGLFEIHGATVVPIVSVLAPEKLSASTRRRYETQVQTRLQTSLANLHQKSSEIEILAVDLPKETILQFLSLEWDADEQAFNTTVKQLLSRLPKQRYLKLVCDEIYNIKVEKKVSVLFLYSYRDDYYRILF
UniProt P49841: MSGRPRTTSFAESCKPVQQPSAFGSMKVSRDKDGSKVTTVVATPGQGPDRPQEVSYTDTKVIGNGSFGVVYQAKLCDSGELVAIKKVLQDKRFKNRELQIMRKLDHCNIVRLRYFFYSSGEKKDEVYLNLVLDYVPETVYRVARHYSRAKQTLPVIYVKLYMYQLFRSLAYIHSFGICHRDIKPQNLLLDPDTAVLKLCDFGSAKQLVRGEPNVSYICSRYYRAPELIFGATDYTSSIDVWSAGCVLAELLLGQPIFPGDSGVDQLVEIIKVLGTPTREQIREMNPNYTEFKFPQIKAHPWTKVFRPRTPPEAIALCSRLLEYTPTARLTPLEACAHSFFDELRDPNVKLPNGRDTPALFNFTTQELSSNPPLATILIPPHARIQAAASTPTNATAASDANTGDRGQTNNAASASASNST
UniProt P49840: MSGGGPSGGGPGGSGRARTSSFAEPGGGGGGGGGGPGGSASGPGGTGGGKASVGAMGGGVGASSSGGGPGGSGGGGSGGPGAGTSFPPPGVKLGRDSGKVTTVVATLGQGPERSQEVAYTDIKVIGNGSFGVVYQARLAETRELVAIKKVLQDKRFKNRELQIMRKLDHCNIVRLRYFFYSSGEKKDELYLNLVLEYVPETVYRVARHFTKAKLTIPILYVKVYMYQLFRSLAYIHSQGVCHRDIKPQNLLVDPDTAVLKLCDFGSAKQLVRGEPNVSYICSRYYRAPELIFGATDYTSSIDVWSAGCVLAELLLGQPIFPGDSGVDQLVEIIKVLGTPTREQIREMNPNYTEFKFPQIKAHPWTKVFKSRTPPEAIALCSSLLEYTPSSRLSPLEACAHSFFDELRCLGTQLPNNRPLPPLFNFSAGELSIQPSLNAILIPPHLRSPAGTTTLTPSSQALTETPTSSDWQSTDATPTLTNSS
UniProt O60674: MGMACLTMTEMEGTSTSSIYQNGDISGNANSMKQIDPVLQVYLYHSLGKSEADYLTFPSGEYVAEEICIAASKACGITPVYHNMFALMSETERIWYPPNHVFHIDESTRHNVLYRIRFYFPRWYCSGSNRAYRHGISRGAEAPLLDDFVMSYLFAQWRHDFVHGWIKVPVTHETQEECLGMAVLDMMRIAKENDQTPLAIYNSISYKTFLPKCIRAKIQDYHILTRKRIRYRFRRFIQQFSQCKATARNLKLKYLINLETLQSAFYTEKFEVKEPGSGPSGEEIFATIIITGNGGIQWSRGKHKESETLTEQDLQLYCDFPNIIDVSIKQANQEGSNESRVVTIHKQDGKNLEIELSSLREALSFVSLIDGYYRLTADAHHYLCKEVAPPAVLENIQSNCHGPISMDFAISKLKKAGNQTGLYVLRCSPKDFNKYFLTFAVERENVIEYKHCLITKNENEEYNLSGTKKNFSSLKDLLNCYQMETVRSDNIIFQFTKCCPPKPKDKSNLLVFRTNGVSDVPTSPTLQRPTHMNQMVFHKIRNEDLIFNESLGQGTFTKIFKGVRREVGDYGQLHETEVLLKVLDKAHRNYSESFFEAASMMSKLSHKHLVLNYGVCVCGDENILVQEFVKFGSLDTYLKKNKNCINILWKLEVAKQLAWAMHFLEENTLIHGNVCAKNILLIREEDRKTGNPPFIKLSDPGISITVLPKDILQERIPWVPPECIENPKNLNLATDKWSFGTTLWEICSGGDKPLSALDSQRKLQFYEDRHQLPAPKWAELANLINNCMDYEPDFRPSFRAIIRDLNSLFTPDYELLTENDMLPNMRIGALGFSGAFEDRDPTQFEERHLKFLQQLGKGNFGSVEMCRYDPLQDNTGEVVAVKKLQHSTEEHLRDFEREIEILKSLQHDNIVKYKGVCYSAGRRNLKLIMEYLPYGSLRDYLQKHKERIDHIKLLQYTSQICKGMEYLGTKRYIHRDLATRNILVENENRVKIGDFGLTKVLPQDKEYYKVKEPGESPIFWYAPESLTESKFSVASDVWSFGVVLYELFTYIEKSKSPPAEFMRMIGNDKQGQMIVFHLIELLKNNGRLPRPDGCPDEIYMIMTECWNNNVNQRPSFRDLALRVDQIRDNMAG
UniProt Q8TDX7: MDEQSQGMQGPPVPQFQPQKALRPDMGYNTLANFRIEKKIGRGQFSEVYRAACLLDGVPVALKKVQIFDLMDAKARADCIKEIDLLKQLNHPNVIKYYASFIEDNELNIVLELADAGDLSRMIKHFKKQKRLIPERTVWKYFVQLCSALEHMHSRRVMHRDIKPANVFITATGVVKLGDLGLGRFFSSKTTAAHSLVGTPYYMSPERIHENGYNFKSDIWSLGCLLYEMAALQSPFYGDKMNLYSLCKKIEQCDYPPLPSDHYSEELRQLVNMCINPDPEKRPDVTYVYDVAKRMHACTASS
UniProt Q9Y2K2: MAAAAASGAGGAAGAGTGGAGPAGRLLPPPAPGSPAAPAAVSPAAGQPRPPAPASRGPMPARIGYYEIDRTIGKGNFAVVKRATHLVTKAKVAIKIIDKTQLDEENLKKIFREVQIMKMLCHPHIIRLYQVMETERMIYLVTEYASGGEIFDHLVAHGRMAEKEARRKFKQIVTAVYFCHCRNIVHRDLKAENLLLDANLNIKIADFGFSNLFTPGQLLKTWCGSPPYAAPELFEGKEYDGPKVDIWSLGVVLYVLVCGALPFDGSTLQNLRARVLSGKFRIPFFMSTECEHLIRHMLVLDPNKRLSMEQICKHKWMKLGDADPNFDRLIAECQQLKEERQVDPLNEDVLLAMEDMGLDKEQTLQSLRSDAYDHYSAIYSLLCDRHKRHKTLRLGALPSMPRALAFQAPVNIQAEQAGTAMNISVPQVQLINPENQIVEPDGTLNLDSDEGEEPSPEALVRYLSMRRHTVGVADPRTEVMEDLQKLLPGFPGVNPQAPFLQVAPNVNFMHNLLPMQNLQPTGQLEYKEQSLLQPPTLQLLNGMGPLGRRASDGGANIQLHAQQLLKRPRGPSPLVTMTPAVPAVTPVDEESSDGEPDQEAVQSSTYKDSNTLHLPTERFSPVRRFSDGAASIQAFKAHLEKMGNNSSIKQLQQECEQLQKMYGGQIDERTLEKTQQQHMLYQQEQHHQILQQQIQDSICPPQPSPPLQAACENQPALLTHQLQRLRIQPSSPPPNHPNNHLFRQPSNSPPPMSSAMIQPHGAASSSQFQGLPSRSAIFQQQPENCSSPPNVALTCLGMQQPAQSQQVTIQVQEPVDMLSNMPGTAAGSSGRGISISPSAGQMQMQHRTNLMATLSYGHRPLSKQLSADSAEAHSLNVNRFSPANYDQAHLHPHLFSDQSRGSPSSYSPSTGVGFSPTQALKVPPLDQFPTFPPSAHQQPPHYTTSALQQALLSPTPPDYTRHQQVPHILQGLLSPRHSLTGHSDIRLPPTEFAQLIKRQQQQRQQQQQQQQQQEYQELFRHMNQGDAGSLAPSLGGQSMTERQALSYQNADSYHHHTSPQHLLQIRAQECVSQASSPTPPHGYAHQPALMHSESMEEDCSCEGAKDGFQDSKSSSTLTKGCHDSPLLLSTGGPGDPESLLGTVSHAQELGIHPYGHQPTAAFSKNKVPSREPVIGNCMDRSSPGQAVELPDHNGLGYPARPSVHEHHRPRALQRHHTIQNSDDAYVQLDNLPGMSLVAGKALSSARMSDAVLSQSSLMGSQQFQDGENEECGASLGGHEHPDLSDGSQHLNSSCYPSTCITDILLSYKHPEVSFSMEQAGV
UniProt P07947, whole entry, looked up: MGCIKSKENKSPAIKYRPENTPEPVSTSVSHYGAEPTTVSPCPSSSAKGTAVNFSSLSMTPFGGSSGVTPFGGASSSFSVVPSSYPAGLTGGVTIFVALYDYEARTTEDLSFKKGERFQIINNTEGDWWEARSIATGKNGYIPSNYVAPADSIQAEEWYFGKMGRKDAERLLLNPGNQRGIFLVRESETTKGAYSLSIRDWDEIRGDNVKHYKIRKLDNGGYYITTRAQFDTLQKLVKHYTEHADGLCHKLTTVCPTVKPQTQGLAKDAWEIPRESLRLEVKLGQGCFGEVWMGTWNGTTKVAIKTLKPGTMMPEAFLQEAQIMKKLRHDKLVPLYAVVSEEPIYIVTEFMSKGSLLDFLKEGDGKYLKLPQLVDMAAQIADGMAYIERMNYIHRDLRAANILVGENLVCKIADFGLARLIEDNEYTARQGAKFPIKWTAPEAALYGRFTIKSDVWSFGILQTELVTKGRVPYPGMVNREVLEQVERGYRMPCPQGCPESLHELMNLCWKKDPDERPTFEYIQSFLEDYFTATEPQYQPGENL
UniProt P42685: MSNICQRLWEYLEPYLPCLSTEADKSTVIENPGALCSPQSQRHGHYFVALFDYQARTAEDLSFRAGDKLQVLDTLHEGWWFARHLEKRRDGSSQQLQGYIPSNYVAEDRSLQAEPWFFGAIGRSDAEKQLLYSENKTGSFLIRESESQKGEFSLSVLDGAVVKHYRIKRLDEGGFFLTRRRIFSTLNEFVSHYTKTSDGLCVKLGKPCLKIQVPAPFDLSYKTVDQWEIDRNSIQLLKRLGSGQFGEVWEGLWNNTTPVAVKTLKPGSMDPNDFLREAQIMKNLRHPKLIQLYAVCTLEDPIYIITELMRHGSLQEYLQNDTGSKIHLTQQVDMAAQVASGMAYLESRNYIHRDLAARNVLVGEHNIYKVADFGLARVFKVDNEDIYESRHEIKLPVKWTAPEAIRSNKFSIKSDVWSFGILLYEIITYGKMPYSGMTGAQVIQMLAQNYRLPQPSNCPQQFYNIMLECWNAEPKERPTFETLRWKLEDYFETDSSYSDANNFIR

EIF2AK4 = EIF2AK4 (UniProt Q9P2K8)
IKBKB = IKBKB (UniProt O14920)
STK33 = STK33 (UniProt Q9BYT3)
GSK3B = GSK3B (UniProt P49841)
GSK3A = GSK3A (UniProt P49840)
JAK2 = JAK2 (UniProt O60674)
NEK7 = NEK7 (UniProt Q8TDX7)
KIAA0999 = KIAA0999 (UniProt Q9Y2K2)
YES1 = YES1 (UniProt P07947)
EPHB1 = target: T2, EPHB1 (UniProt P54762)
T2 sequence (whole entry): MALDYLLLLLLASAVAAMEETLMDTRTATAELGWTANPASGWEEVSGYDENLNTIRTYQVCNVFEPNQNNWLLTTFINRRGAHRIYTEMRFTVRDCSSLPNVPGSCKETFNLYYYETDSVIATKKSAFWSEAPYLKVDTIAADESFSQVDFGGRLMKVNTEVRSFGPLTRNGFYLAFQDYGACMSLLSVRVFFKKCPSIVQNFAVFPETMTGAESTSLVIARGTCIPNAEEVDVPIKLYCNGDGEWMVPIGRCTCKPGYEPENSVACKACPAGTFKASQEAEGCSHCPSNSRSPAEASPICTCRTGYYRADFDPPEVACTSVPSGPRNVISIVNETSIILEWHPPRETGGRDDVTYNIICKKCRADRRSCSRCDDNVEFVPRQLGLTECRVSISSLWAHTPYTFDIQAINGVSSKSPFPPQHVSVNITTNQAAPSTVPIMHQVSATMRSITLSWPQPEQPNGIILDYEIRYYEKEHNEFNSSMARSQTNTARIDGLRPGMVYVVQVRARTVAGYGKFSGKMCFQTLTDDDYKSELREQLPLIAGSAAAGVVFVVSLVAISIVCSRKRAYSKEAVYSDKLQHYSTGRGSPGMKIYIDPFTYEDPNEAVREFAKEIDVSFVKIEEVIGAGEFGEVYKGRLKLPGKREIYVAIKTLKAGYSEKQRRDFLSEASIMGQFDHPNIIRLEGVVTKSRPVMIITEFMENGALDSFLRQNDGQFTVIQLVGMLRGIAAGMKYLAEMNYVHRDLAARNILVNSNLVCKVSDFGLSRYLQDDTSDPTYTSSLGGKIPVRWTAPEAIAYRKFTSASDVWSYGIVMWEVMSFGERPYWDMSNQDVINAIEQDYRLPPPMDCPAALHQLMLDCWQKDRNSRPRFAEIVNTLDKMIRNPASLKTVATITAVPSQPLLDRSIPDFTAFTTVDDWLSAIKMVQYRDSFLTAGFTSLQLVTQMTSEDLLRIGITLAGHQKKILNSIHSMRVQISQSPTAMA

FRK = FRK (UniProt P42685)

Compound: NC(=O)c1cccc2cn(-c3ccc([C@@H]4CCCNC4)cc3)nc12 [Niraparib]
- apparent dissociation constant pKd app (-log10) (PRKCB): < 4.7
- apparent dissociation constant pKd app (-log10) (MAP2K5): < 4.6
- apparent dissociation constant pKd app (-log10) (EIF2AK4): < 4.5
- apparent dissociation constant pKd app (-log10) (IKBKB): < 4.5
- apparent dissociation constant pKd app (-log10) (STK33): < 4.7
- apparent dissociation constant pKd app (-log10) (GSK3B): < 4.8
- apparent dissociation constant pKd app (-log10) (GSK3A): < 4.8
- apparent dissociation constant pKd app (-log10) (JAK2): < 4.6
- apparent dissociation constant pKd app (-log10) (NEK7): < 4.5
- apparent dissociation constant pKd app (-log10) (KIAA0999): < 4.6
- apparent dissociation constant pKd app (-log10) (YES1): < 4.8
- apparent dissociation constant pKd app (-log10) (EPHB1): < 4.7
- apparent dissociation constant pKd app (-log10) (FRK): < 4.7

Compound: O=C(c1cc(Cc2n[nH]c(=O)c3ccccc23)ccc1F)N1CCN(C(=O)C2CC2)CC1 [Olaparib]
- apparent dissociation constant pKd app (-log10) (PRKCB): < 4.7
- apparent dissociation constant pKd app (-log10) (MAP2K5): < 4.6
- apparent dissociation constant pKd app (-log10) (EIF2AK4): < 4.5
- apparent dissociation constant pKd app (-log10) (IKBKB): < 4.5
- apparent dissociation constant pKd app (-log10) (STK33): < 4.7
- apparent dissociation constant pKd app (-log10) (GSK3B): < 4.8
- apparent dissociation constant pKd app (-log10) (GSK3A): < 4.8
- apparent dissociation constant pKd app (-log10) (JAK2): < 4.6
- apparent dissociation constant pKd app (-log10) (NEK7): < 4.5
- apparent dissociation constant pKd app (-log10) (KIAA0999): < 4.6
- apparent dissociation constant pKd app (-log10) (YES1): < 4.8
- apparent dissociation constant pKd app (-log10) (EPHB1): < 4.7
- apparent dissociation constant pKd app (-log10) (FRK): < 4.7

Compound: Cn1ncnc1[C@H]1c2n[nH]c(=O)c3cc(F)cc(c23)N[C@@H]1c1ccc(F)cc1 [Talazoparib]
- apparent dissociation constant pKd app (-log10) (PRKCB): < 4.7
- apparent dissociation constant pKd app (-log10) (MAP2K5): < 4.6
- apparent dissociation constant pKd app (-log10) (EIF2AK4): < 4.5
- apparent dissociation constant pKd app (-log10) (IKBKB): < 4.5
- apparent dissociation constant pKd app (-log10) (STK33): < 4.7
- apparent dissociation constant pKd app (-log10) (GSK3B): < 4.8
- apparent dissociation constant pKd app (-log10) (GSK3A): < 4.8
- apparent dissociation constant pKd app (-log10) (JAK2): < 4.6
- apparent dissociation constant pKd app (-log10) (NEK7): < 4.5
- apparent dissociation constant pKd app (-log10) (KIAA0999): < 4.6
- apparent dissociation constant pKd app (-log10) (YES1): < 4.8
- apparent dissociation constant pKd app (-log10) (EPHB1): < 4.7
- apparent dissociation constant pKd app (-log10) (FRK): < 4.7
